Literature values as cited in patent US11787865B2, “Bifunctional molecules for lysosomal targeting and related compositions and methods” (The Board of Trustees of the Leland Stanford Junior …, priority 2018, dated 2023).

Tested on: HCC
Settings: HCC patients; cited from earlier work

Cetuximab
clinical outcome: failed in Phase II Clinical Trials
